Test results taken from PubChem BioAssay AID463212 (Sanford-Burnham Center for Chemical Genomics, 2010).
Only a part is listed here, and it is no random draw. Calls of active or inactive are those of the source.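 The calls were made as follows: active = growth inhibition of the mutant yeast at or above 50%; inactive = the rest.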

Assay: growth inhibition of tim23-1 ts yeast – luminescence, uHTS, primary screen (AID 463212);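 also: temperature-sensitive mutant grown at 25 °C; plate controls were DMSO-treated mutant yeast for no effect and medium wells lacking yeast for full effect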
Conditions: S. cerevisiae tim23-1 growth, BacTiter-Glo luminescence, 24 h; at 20 µM; hits give high values
In the case of `COc1ccc2nc(NP(=O)(c3ccccc3)c3ccccc3)sc2c1`, the inhibition is reported as inactive: -44.1%.
With `COc1cc(I)ccc1[As](=O)(O)O` the inhibition was inactive: 10.4%.
In the case of `O=C(OC1CN2CCC1CC2)C12CC3CC(CC(C3)C1)C2` (stereo unspecified), the inhibition is reported as inactive: 20.9%.
With `Cc1cc(=O)[nH]c(N[N+](=O)[O-])n1` the inhibition was inactive: 1.07%.
In the case of `Cc1c2c(nc3ccccc13)SC(C(Cl)Cl)C2` (stereo unspecified), the inhibition is reported as inactive: 33.6%.
In the case of `COc1ccc(N/C(=N/P(=O)(N2CCOCC2)N2CCOCC2)N2CCOCC2)cc1`, the inhibition is reported as inactive: 7.65%.
For `Cc1ccc2nc3c(c(C)c2c1)CC(C(Cl)Cl)S3` (stereo unspecified), the inhibition was inactive: 32.3%.
With `Cc1ccc(OP(=O)(Nc2ccc([N+](=O)[O-])cn2)Oc2ccc(C)cc2)cc1` the inhibition was inactive: 8.8%.
For `C[As](=O)(O)c1cccc(C(=O)O)c1`, the inhibition was inactive: 3.99%.
In the case of `O=[As](O)(c1ccc(O)cc1)c1ccccc1O`, the inhibition is reported as inactive: -3.63%.
In the case of `COc1cc(C(=O)NCC2(N3CCOCC3)CCCCC2)ccc1OCC(C)C`, the inhibition is reported as inactive: 8.97%.
For `CC(C)NC(=O)NP(=O)(Oc1ccccc1)Oc1ccccc1`, the inhibition was inactive: 9.21%.
For `O=C(OC1CN2CCC1CC2)c1cccc2[nH]cnc12` (stereo unspecified), the inhibition was inactive: -9.05%.
With `CCN(CC)C(=S)SC(NC=O)C(Cl)(Cl)Cl` (stereo unspecified) the inhibition was inactive: 13.9%.
With `O=[N+]([O-])c1cc([N+](=O)[O-])c(-c2ccn[nH]2)s1` the inhibition was inactive: 48.8%.
In the case of `CC(C)c1ccc(OP(=O)(Nc2ccccn2)Oc2ccccc2F)cc1` (stereo unspecified), the inhibition is reported as inactive: 31.5%.
With `ClCCSc1nnc(-c2cccnc2)o1` the inhibition was inactive: 27.3%.
For `CCCCOc1ccc(C(=O)NCC2(N3CCCCC3)CCCCC2)cc1OC`, the inhibition was inactive: -2.02%.
For `Cc1cc(SC(NC(=O)c2ccccc2)C(Cl)(Cl)Cl)nc(C(C)C)n1` (stereo unspecified), the inhibition was inactive: 44.9%.
With `CCOC(=O)Nc1ccc([As](=O)(O)O)c(O)c1` the inhibition was inactive: -4.01%.
For `Cc1cc(SC(NC=O)C(Cl)(Cl)Cl)ncn1` (stereo unspecified), the inhibition was inactive: 1.46%.
In the case of `O=P(Nc1ccccn1)(c1cccc2ccccc12)c1cccc2ccccc12`, the inhibition is reported as inactive: -34%.
For `CCOC(=O)Nc1cccc([As](=O)(O)O)c1`, the inhibition was inactive: 7.94%.
In the case of `O=C(COc1ccccc1)OC1CN2CCC1CC2` (stereo unspecified), the inhibition is reported as inactive: -4.49%.
In the case of `O=C(Nc1ccncc1[N+](=O)[O-])c1ccc([N+](=O)[O-])cc1[N+](=O)[O-]`, the inhibition is reported as inactive: 27.3%.
For `COP1(=S)c2c(C)nn(CCC#N)c2N=C(c2ccc(F)cc2)N1C` (stereo unspecified), the inhibition was inactive: 8.88%.
In the case of `CCC(C)N(CC(C)C)C(=S)SC(NC(C)=O)C(Cl)(Cl)Cl` (stereo unspecified), the inhibition is reported as inactive: 25%.
With `CCOC(=O)c1ccc(NC(=O)C(C)(CCl)SC)cc1` (stereo unspecified) the inhibition was inactive: 20.2%.
For `O=C(OC1CN2CCC1CC2)c1cccc([N+](=O)[O-])c1` (stereo unspecified), the inhibition was inactive: -189%.
For `Clc1n[nH]nc1-c1nn[nH][15n]1`, the inhibition was inactive: 4.24%.
In the case of `CC(C)(C)C(=O)NC(Sc1ncccn1)C(Cl)(Cl)Cl` (stereo unspecified), the inhibition is reported as inactive: 16.7%.
With `CCOP(=O)(Nc1ccc(C)cn1)OCC` the inhibition was inactive: -15%.
With `CN(CCCl)Cc1cc(Cl)c(NC2=NCCN2)c(Cl)c1` the inhibition was inactive: -23.4%.
With `CCC1=CC2Cc3nc4ccc(Cl)cc4c(N)c3C(C1)C2` (stereo unspecified) the inhibition was inactive: 6.91%.
For `O=P1(Nc2ccccn2)COc2ccccc2OC1`, the inhibition was inactive: 9.94%.
With `CCOP(=O)(NC(=NC(C)c1ccccc1)NC(C)c1ccccc1)OCC` (stereo unspecified) the inhibition was inactive: 26.6%.
For `O=[As](O)(c1ccccc1Br)c1ccccc1Br`, the inhibition was inactive: -5.44%.
For `CC1(CBr)Cn2c(nc3ccccc3c2=O)S1` (stereo unspecified), the inhibition was inactive: 1.19%.
With `CN(C(=O)Cc1ccc(Cl)c(Cl)c1)[C@@H]1CCCC[C@H]1N1CCCC1` the inhibition was inactive: -6.08%.
In the case of `CC(C)/C=N\N=C(\N)N[N+](=O)[O-]`, the inhibition is reported as inactive: -3.56%.
For `COc1ccccc1CNC(=O)COC(=O)C(O)(c1ccccc1)c1ccccc1`, the inhibition was inactive: 7.42%.
In the case of `O=C(/C=C/c1ccccc1)OC1CN2CCC1CC2` (stereo unspecified), the inhibition is reported as inactive: 5.57%.
For `CN(C)C1(CNC(=O)c2ccc(S(C)(=O)=O)cc2)CCCCC1`, the inhibition was inactive: 3.95%.
With `Cc1nn(-c2ccccc2)c2c1P(=O)(N1CCOCC1)N(C)C(c1ccccc1)=N2` (stereo unspecified) the inhibition was inactive: -3.17%.
With `Cc1ccc(C(=O)OC2CN3CCC2CC3)cc1` (stereo unspecified) the inhibition was inactive: -16.6%.
With `CC1CCC(C(C)C)C(OP(=O)(Nc2ccccn2)c2ccccc2)C1` (stereo unspecified) the inhibition was inactive: 38.4%.
For `O=[As](O)(c1cccs1)c1cccs1`, the inhibition was inactive: 9.65%.
For `Cc1ccc(OCC(=O)OC2CN3CCC2CC3)cc1` (stereo unspecified), the inhibition was inactive: 0.493%.
For `NS(=O)(=O)c1cccc(NC(=O)COC(=O)C(O)(c2ccccc2)c2ccccc2)c1`, the inhibition was inactive: 7.66%.
In the case of `O=P1(Nc2ccc(Br)cn2)COc2ccccc2OC1`, the inhibition is reported as inactive: 13.4%.
With `Nc1cccc([As](=O)(O)c2ccccc2)c1` the inhibition was inactive: -0.534%.
With `O=P1(Nc2ncccn2)COc2ccccc2OC1` the inhibition was inactive: 23.4%.
With `O=C(O)COc1ccc([As](=O)(O)O)cc1[N+](=O)[O-]` the inhibition was inactive: 2.65%.
With `Nc1ccccc1[As](=O)(O)c1ccccc1` the inhibition was inactive: 2.4%.
For `CS(=O)(=O)c1cc([N+](=O)[O-])c2no[n+]([O-])c2c1`, the inhibition was inactive: 23.3%.
For `CCOP1(=S)c2c(C)nn(CCC#N)c2N=C(c2ccccc2F)N1C` (stereo unspecified), the inhibition was inactive: 20.6%.
In the case of `O=P(Nc1nccs1)(Oc1ccccc1)Oc1ccccc1`, the inhibition is reported as inactive: 12.8%.
With `O=P(Nc1nccs1)(c1ccccc1)c1nc2ccccc2s1` (stereo unspecified) the inhibition was inactive: 4.22%.
For `O=[N+]([O-])c1ccc2c(c1)nnn2O`, the inhibition was inactive: 8.9%.
For `CN(C)C(=O)c1cc([N+](=O)[O-])cc2c1-c1c(cc([N+](=O)[O-])cc1[N+](=O)[O-])C2=O`, the inhibition was inactive: 46.4%.
With `CN(C(=O)Cc1ccc(Cl)c(Cl)c1)[C@H]1CC[C@@]2(CCCO2)C[C@@H]1N1CCCC1` the inhibition was inactive: 9.42%.
In the case of `N#CCCN(C(=O)COC(=O)C(O)(c1ccccc1)c1ccccc1)c1ccc(F)cc1`, the inhibition is reported as inactive: 23.3%.
For `CCOP1(=S)c2c(C)nn(CCC#N)c2N=C(c2ccc(F)cc2)N1C` (stereo unspecified), the inhibition was inactive: 6.91%.
For `CN(C(=O)Cc1ccccc1)[C@@H]1CC[C@]2(CCCO2)C[C@H]1N1CCCC1`, the inhibition was inactive: 14.9%.
For `NC(=O)Nc1ccc([As](=O)(O)O)cc1`, the inhibition was inactive: 9.21%.
For `Cc1cccc(OCC(=O)OC2CN3CCC2CC3)c1` (stereo unspecified), the inhibition was inactive: -6.71%.
With `O=[As](O)(c1cccc(O)c1)c1cccc(O)c1` the inhibition was inactive: -5.45%.
With `O=[As](O)(O)c1cccnc1` the inhibition was inactive: 20.1%.
With `COc1cc(C(=O)NCC2(N3CCOCC3)CCCCC2)cc(Cl)c1OC(C)C` the inhibition was inactive: 21.4%.
With `CS(=O)(=O)c1ccc(Cl)c(NC(=O)COC(=O)C(O)(c2ccccc2)c2ccccc2)c1` the inhibition was inactive: 18.1%.
In the case of `O=C(OC1CN2CCC1CC2)c1ccc(Cl)cc1` (stereo unspecified), the inhibition is reported as inactive: -25.9%.
With `COc1cc(C2NCCC3(OCCO3)C2(C)C)cc(OC)c1OC` (stereo unspecified) the inhibition was inactive: 4.37%.
With `CCOP(=O)(Nc1cccc2ccccc12)OCC` the inhibition was inactive: -7.03%.
In the case of `CCCOP(=S)(Nc1nc(N)cc(=O)[nH]1)OCCC`, the inhibition is reported as inactive: 5.52%.
For `Cc1ccc(NCCc2c([N+](=O)[O-])cc([N+](=O)[O-])cc2[N+](=O)[O-])cc1`, the inhibition was active: 79.9%.
In the case of `CC(C)(C)C(=O)NC(Sc1ccccc1)C(Cl)(Cl)Cl` (stereo unspecified), the inhibition is reported as inactive: 25%.
For `O=P1(Nc2nc3ccc(Cl)cc3s2)COc2ccccc2O1` (stereo unspecified), the inhibition was inactive: 16.7%.
In the case of `CCOc1ccc(C2=NCC(CBr)S2)cc1` (stereo unspecified), the inhibition is reported as inactive: 20.4%.
In the case of `CC(=O)Nc1ccc([As](=O)(O)O)c(O)c1`, the inhibition is reported as inactive: -1.89%.
In the case of `CC(=O)Nc1ccc(Oc2c([N+](=O)[O-])cc([N+](=O)[O-])cc2[N+](=O)[O-])cc1`, the inhibition is reported as inactive: 10.2%.
With `CC(=O)c1ccc(N2CC2c2ccncc2)cc1` (stereo unspecified) the inhibition was inactive: -3.18%.
With `Cc1ccccc1CN(C)C(=O)COC(=O)C(O)(c1ccccc1)c1ccccc1` the inhibition was inactive: 32.9%.
In the case of `C[C@H]1OP(=O)(Oc2ccccc2)C[C@@H]2O[C@@H]21` (stereo partly specified), the inhibition is reported as inactive: 15.2%.
For `C[C@@H]1C=CCP(=O)(Oc2ccccc2)O1` (stereo partly specified), the inhibition was inactive: -8.96%.
With `O=C(NC1CCS(=O)(=O)C1)NP(=S)(Oc1ccccc1)Oc1ccccc1` (stereo unspecified) the inhibition was inactive: -1.27%.
For `CCNC(=S)/N=C(\N)N[N+](=O)[O-]`, the inhibition was inactive: -9.52%.
With `c1ccc(-c2nn[nH]n2)c(-c2nn[nH]n2)c1` the inhibition was inactive: 2.03%.
In the case of `CCOC(=O)NC(Sc1ccccc1)C(Cl)(Cl)Cl` (stereo unspecified), the inhibition is reported as inactive: 6.41%.
In the case of `Cc1ccc(NP(=O)(Oc2cccc(C)c2)Oc2cccc(C)c2)nc1`, the inhibition is reported as inactive: -13.4%.
In the case of `CC(NC(=O)COC(=O)C(O)(c1ccccc1)c1ccccc1)c1ccccc1` (stereo unspecified), the inhibition is reported as inactive: 25.4%.
For `Cc1ccccc1OP(=O)(Nc1ccccn1)Oc1ccccc1C`, the inhibition was inactive: 39.8%.
For `CN(C)C(=O)Oc1noc2ccccc12`, the inhibition was inactive: 3.04%.
In the case of `COC(=O)c1cc2c(s1)N=C(c1ccccc1)N(C)P2(=O)N1CCOCC1` (stereo unspecified), the inhibition is reported as inactive: 9.73%.
With `Cc1ccc(OP(=O)(Nc2ccccn2)Oc2ccc(C)cc2)cc1` the inhibition was inactive: -208%.
With `CC(=O)NC(SC(=S)N(CC(C)C)CC(C)C)C(Cl)(Cl)Cl` (stereo unspecified) the inhibition was inactive: 46.8%.
For `O=C(OC1CN2CCC1CC2)c1ccccc1` (stereo unspecified), the inhibition was inactive: 3.05%.
With `CCC(=O)N1C2C3N(C(=O)CC)C1C1N(C(=O)CC)C(C(N1C(=O)CC)N3C(=O)CC)N2C(=O)CC` the inhibition was inactive: 16%.
For `O=P(Nc1nc2ccccc2s1)(c1ccccc1)c1ccccc1`, the inhibition was inactive: 10.4%.
With `C[C@H]1OP(=O)(Oc2ccccc2)[C@H](O)[C@H](O)[C@H]1N=[N+]=[N-]` (stereo partly specified) the inhibition was inactive: 7.76%.
For `CN(C)C1(CNC(=O)c2ccc(Cl)c(S(N)(=O)=O)c2)CCCCC1`, the inhibition was inactive: -10.8%.
For `O=P(Nc1ccccn1)(c1ccc(Br)cc1)c1ccc(Br)cc1`, the inhibition was inactive: 22%.
